Screening data from PubChem.
DENV2 CPE rescue: inhibitors of DENV2 cytopathic effect; DENV2-infected cells, cytopathic effect rescue, plate reader; CPE inhibition, % at 9.99 µM; 1.7% of 350,000 active; AID 651640; in the data active means CPE inhibition above about 20%, passing the limit was not always enough; inconclusive means no clear call, values can overlap the other calls; tested in BHK-21 cells;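 further: 0% = median of neutral control wells and 100% = median of positive control wells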
UUG fidelity: modulators of yeast start codon fidelity, primary screen, whole organism, S. cerevisiae, single point, plate reader | AID 602363, 2012 | S. cerevisiae UUG-firefly luciferase reporter, luminescence/redox ratio | activity score, % at 18.7 µM | hit rate 0.13% among 350,000;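 active = replicate mean at a twofold rise or more, about +100% in these data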;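 also: firefly luciferase made from a UUG start codon reports start codon fidelity; reporter light over untreated wells divided by growth signal over untreated wells; some hits fall short of that in this replicate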
E-selectin induc: induces E-selectin expression in human endothelial cells; P16581; AID 686992; activation, % at 7.58 µM; HUVEC E-selectin immunofluorescence imaging; normalized: neutral wells 0, TNF-alpha wells 100; 0.37% of 260,000 active;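 active means mean E-selectin-positive cell signal at least 10% of the positive control, reached in at least 60% of replicates, without over 20% cell loss; inconclusive means no rule given, readout overlaps actives, possibly toxicity-flagged; inactive means the rest, including those meeting only one limit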
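Assay system: HUVEC, human umbilical vein endothelial cells / Amount: 3,000 HUVEC/well / Controls: TNF-alpha positive control, DMSO neutral control / Compound dosing: single concentration / Medium: EGM-2 over gelatin coat / Evaluation: percent E-selectin-positive cells / Signal: immunofluorescence imaging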
Cneo AK release: Cryptococcus neoformans lysis via adenylate kinase release | C. neoformans lysis, adenylate kinase release luminescence, 4 h; normalised: neutral wells 0, clomiphene wells 100 | lysis activity, % at 15 µM | 0.2% of 360,000 active;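 active means mean lysis activity across replicates of at least 80%, whatever share of replicates individually reach that level; inactive means mean lysis activity below 80%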
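Material: C. neoformans cells; Schedule: 4 h static compound exposure, 37 °C, read 1 h post-reagent; Measured by: adenylate kinase release luminescence; Read-out: signal increase indicating cell lysis; Controls: Clomiphene as positive lysis control.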
Active calls of the source: *; ? = inconclusive; . = no result. Hits are enriched below; roughly 1.8% of the tested compounds scored in any of these assays.

Keys – A = DENV2 CPE rescue; B = UUG fidelity; C = E-selectin induc; D = Cneo AK release
#1 COc1ccc(NC(=O)N(C)C[C@@H]2Oc3ccc(NC(=O)Nc4ccc(C(F)(F)F)cc4)cc3CC(=O)N([C@H](C)CO)C[C@@H]2C)cc1
  A = 53*	B = 3	C = 0	D = -59

#2 COc1ccc(NC(=O)N(C)C[C@@H]2Oc3ccc(NC(=O)Nc4ccc(F)cc4)cc3CC(=O)N([C@@H](C)CO)C[C@@H]2C)cc1
  A = 50*	B = 7	C = 0	D = 1

#3 COc1ccc(NC(=O)N(C)C[C@H]2Oc3ccc(NC(=O)c4ccncc4)cc3CC(=O)N([C@H](C)CO)C[C@H]2C)cc1
  A = 10	B = -2	C = 42*	D = -5

#4 COc1ccc(NC(=O)Nc2ccc3c(c2)CC(=O)N([C@H](C)CO)C[C@@H](C)[C@@H](CN(C)C(=O)Nc2ccc(C(F)(F)F)cc2)O3)cc1
  A = -1	B = 24	C = .	D = -1

#5 C[C@H]1CN([C@@H](C)CO)C(=O)Cc2cc(N(C)C)ccc2O[C@@H]1CN(C)C(=O)Nc1ccc(C(F)(F)F)cc1
  A = 5	B = 15	C = 0	D = 142*

#6 CCC(=O)N1C[C@@H]2[C@H](c3ccccc31)[C@@H](CO)N2Cc1ccccc1F
  A = 5	B = 3	C = 3	D = -2

#7 COc1ccc(NC(=O)Nc2ccc3c(c2)CC(=O)N([C@@H](C)CO)C[C@H](C)[C@@H](CN(C)C(=O)Nc2ccccc2)O3)cc1
  A = 46*	B = -11	C = 0	D = -4

#8 C[C@@H]1CN([C@@H](C)CO)C(=O)Cc2cc(NC(=O)Nc3ccc(F)cc3)ccc2O[C@H]1CN(C)C(=O)Nc1ccc(C(F)(F)F)cc1
  A = -6	B = -6	C = 52*	D = -1

#9 C[C@@H]1CCCCO[C@H](CN(C)C(=O)Nc2cccc3ccccc23)[C@H](C)CN([C@@H](C)CO)C(=O)c2cc(NS(=O)(=O)c3ccc(Cl)cc3)ccc2O1
  A = 8	B = -5	C = .	D = 1

#10 CCN(CC(=O)Nc1c(F)cccc1F)C(=O)/C=C/c1ccc2c(c1)OCO2
  A = 84*	B = -17	C = .	D = -1

#11 CCOc1ccc(/C=C/C(=O)N(CC)CC(=O)Nc2c(F)cccc2F)cc1OC
  A = 1	B = -9	C = 0	D = 7

#12 CCC(=O)N1[C@@H](CO)[C@@H](c2ccccc2)C12CN(Cc1nccs1)C2
  A = 4	B = .	C = 0	D = .

#13 CC1CCCC(NC(=O)COC(=O)c2ccccc2Sc2ccccc2C#N)C1C (centres undefined)
  A = 57*	B = 2	C = .	D = 3

#14 CCCCN(C(=O)c1ccc2c(c1)NC(=O)CS2)c1ccccc1
  A = 94*	B = -20	C = .	D = -6

#15 O=C(Nc1cc(F)ccc1F)N[C@@H]1CC[C@H](CCNC(=O)c2cnccn2)O[C@@H]1CO
  A = 34*	B = 1	C = 0	D = 12

#16 O=C(Nc1cc(F)ccc1F)N[C@@H]1CC[C@H](CCNC(=O)c2cnccn2)O[C@H]1CO
  A = 32*	B = 2	C = 0	D = 12

#17 C[C@H](CO)N1C[C@H](C)[C@H](CN(C)S(=O)(=O)c2ccc(Cl)cc2)OCCCC[C@H](C)Oc2ccc(NC(=O)Nc3cccc4ccccc34)cc2C1=O
  A = -2	B = -1	C = 1	D = -2

#18 COc1ccc(CN(C)C[C@H]2OCCCC[C@@H](C)Oc3ccc(NC(=O)Nc4cccc5ccccc45)cc3C(=O)N([C@H](C)CO)C[C@H]2C)cc1
  A = 18	B = 12	C = 0	D = 56

#19 COc1ccc(NC(=O)N(C)C[C@H]2Oc3c(cccc3N(C)C)C(=O)N([C@H](C)CO)C[C@H]2C)cc1
  A = -3	B = -11	C = .	D = 5

#20 CNC[C@@H]1OCCCC[C@@H](C)Oc2ccc(NS(=O)(=O)c3cccs3)cc2C(=O)N([C@@H](C)CO)C[C@H]1C
  A = 0	B = .	C = 0	D = -4

Reprinted from the part before: 5 entries, then new ones.
Keys – A = DENV2 CPE rescue; B = UUG fidelity; C = E-selectin induc; D = Cneo AK release
#16 O=C(Nc1cc(F)ccc1F)N[C@@H]1CC[C@H](CCNC(=O)c2cnccn2)O[C@H]1CO
  A = 32*	B = 2	C = 0	D = 12

#17 C[C@H](CO)N1C[C@H](C)[C@H](CN(C)S(=O)(=O)c2ccc(Cl)cc2)OCCCC[C@H](C)Oc2ccc(NC(=O)Nc3cccc4ccccc34)cc2C1=O
  A = -2	B = -1	C = 1	D = -2

#18 COc1ccc(CN(C)C[C@H]2OCCCC[C@@H](C)Oc3ccc(NC(=O)Nc4cccc5ccccc45)cc3C(=O)N([C@H](C)CO)C[C@H]2C)cc1
  A = 18	B = 12	C = 0	D = 56

#19 COc1ccc(NC(=O)N(C)C[C@H]2Oc3c(cccc3N(C)C)C(=O)N([C@H](C)CO)C[C@H]2C)cc1
  A = -3	B = -11	C = .	D = 5

#20 CNC[C@@H]1OCCCC[C@@H](C)Oc2ccc(NS(=O)(=O)c3cccs3)cc2C(=O)N([C@@H](C)CO)C[C@H]1C
  A = 0	B = .	C = 0	D = -4

#21 O=C(COC(=O)CCC1CCCC1)Nc1nc2c(F)c(F)c(F)cc2s1
  A = 2	B = -13	C = 0	D = 91*

#22 O=C(COC(=O)c1ccco1)Nc1nc2c(F)c(F)c(F)cc2s1
  A = -8	B = -12	C = 0	D = 1

#23 COc1cccc(/C=C2\SC(=S)N(CCCC(=O)N3CCCCC3)C2=O)c1
  A = 27*	B = -15	C = 0	D = 3

#24 COc1cccc(/C=C2/SC(=S)N(CCC(=O)N3CCOCC3)C2=O)c1
  A = -4	B = -1	C = .	D = 2

#25 CN(C)CC(=O)Nc1ccc2c(c1)[C@@H]1C[C@@H](CC(=O)NCc3ccncc3)O[C@@H](CO)[C@@H]1O2
  A = 4	B = -11	C = -1	D = 8

#26 O=S(=O)(c1ccc2c(c1)OCCO2)N1CCN(S(=O)(=O)c2c(F)cc(F)cc2F)CC1
  A = -14	B = -4	C = 0	D = -2

#27 O=S(=O)(c1ccc2c(c1)OCCO2)N1CCCN(S(=O)(=O)c2c(F)cccc2F)CC1
  A = 90*	B = -13	C = 0	D = -1

#28 CCc1ccc2cc(C)cc(C)c2n1
  A = 34*	B = -14	C = 0	D = 1

#29 O=C(CCNC(=O)OCC1c2ccccc2-c2ccccc21)NOCc1ccccc1
  A = 29*	B = -18	C = .	D = -2

#30 O=C(O)CCNC(=O)OCC1c2ccccc2-c2ccccc21
  A = -3	B = -12	C = .	D = 2

31) CCC(=O)Nc1ccc2c(c1)C(=O)N(C)C[C@@H](OC)[C@@H](C)CN[C@H](C)CO2
32) CO[C@@H]1CN(C)C(=O)c2cc(NC(=O)CC(F)(F)F)ccc2OC[C@H](C)NC[C@@H]1C
33) CO[C@H]1CN(C)C(=O)c2cc(NC(=O)CC(F)(F)F)ccc2OC[C@@H](C)NC[C@H]1C
34) CO[C@H]1CN(C)C(=O)c2cc(NC(=O)Nc3ccccc3Cl)ccc2OC[C@H](C)NC[C@@H]1C
35) CCC(=O)Nc1ccc2c(c1)OC[C@H](C)NC[C@H](C)[C@H](OC)CN(C)C2=O
36) CCC(=O)Nc1ccc2c(c1)C(=O)N(C)C[C@@H](OC)[C@H](C)CN[C@@H](C)CO2
37) CO[C@H]1CN(C)C(=O)c2cc(NC(=O)Nc3ccccc3Cl)ccc2OC[C@@H](C)NC[C@@H]1C
38) C[C@@H]1CCCCO[C@H](CN(C)C(=O)CCCN(C)C)[C@@H](C)CN([C@@H](C)CO)C(=O)c2cc(NC(=O)NC3CCCCC3)ccc2O1
39) CO[C@H]1CN(C)C(=O)c2cc(NC(=O)c3cnccn3)ccc2OC[C@H](C)NC[C@H]1C
40) CO[C@H]1CN(C)C(=O)c2cc(NC(=O)c3ccc(-c4ccccc4)cc3)ccc2OC[C@H](C)NC[C@@H]1C
screen / no.	31	32	33	34	35	36	37	38	39	40
DENV2 CPE rescue	-8	0	26*	-3	21*	?	31*	0	27*	23*
UUG fidelity	5	.	.	-3	-5	20	-4	15	-7	-5
E-selectin induc	0	5	0	0	0	0	0	0	0	0
Cneo AK release	-4	.	.	1	-6	102*	2	1	-1	-2

41) C=CCN1C=C2C(=O)C(C)(OC(=O)c3cccs3)C(=O)C=C2C=C1CCCC(=O)OC (centres undefined)
42) COC(=O)CCCC1=CC2=CC(=O)C(C)(OC(=O)c3cccs3)C(=O)C2=CN1CCc1ccccn1 (centres undefined)
43) COc1ccc(NC(=O)N(C)C[C@H]2Oc3c(NS(=O)(=O)c4cn(C)cn4)cccc3C(=O)N([C@H](C)CO)C[C@H]2C)cc1
44) COc1ccc(NC(=O)N(C)C[C@H]2Oc3c(NS(=O)(=O)c4cn(C)cn4)cccc3C(=O)N([C@@H](C)CO)C[C@@H]2C)cc1
screen / no.	41	42	43	44
DENV2 CPE rescue	?	24*	0	26*
UUG fidelity	-3	13	9	1
E-selectin induc	0	0	?	39*
Cneo AK release	1	-2	49	46
